Values of other authors as cited in US20100004244A1, “USE OF CB2 RECEPTOR AGONISTS FOR PROMOTING NEUROGENESIS” (priority 2006, published 2010).

By UniProt entry, the sequences of proteins in these tests, tags left out.
UniProt P34972, whole entry: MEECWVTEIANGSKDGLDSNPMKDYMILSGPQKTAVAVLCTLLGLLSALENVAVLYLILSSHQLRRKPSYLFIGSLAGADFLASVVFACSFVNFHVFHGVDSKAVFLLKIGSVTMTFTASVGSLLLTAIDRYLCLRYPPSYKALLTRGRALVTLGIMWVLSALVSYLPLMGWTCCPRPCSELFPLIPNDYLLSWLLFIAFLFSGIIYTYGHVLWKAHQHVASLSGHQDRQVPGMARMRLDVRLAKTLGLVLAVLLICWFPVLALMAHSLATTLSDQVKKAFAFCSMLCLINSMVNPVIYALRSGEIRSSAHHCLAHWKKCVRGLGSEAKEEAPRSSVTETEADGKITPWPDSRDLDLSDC

Target: human CB2 receptors (Homo sapiens, UniProt P34972)
Conditions: read-out: IC50 for binding to human CB2 receptors; as disclosed in WO 03/064359; cited from earlier work

## CCCCCCC(C)(C)c1cc(OC)c(C2C=C(CO)C3CC2C3(C)C)c(OC)c1 (single isomer, unassigned; (+)) [HU-308, (+) {4-[4-(1,1-dimethylheptyl)-2,6-dimethoxyphenyl]-6,6-dimethyl-bicyclo[3.1.1]hept-2-en-2-yl}-methanol]
  IC50: 13.3 nM
